How the values were obtained:
apoptotic hepatocytes = details: intravenous, no anti-Fas antibody
Description: All animals were killed 2 hr after administration of antibody followed by organ removal. Heart, lung and liver were collected.
Formalin fixed paraffin-embedded tissues were sectioned (5 μm) for staining with Hematoxylin/Eosin or other techniques.
Endogenous peroxidase activity was blocked by incubation with 3% H2O2.
After washing with PBS, staining was developed with 3,3-diaminobenzidine tetrahydrochloride (DAB), and counterstained with Hematoxylin.
Liver sections from different lobes were used for detection of stained apoptotic cells compared to normal cells.
The percentage of apoptotic cells in the fields was estimated by evaluating parallel sections stained with Hematoxylin/Eosin. Analysis was performed blindly, since the pathologist performing the histological evaluation was unaware of the assignment of mice to the treatment or control group.

For “Myristate-KKKKKRFSFKKSFKLSGFSFKKNKKK (SEQUENCE ID NO. 2)-(biotin) [NST302]”, which “apoptotic cells in liver sections of control animals injected with compound alone” value (apoptotic hepatocytes) is on record?
The value was “No evidence of apoptotic cells”.

What about the “liver staining 30, 60 and 90 minutes after injection” value (anti-Fas treated mice) of the same substance?
The value was “slowly declined”.

And the “time of peak of liver staining after injection” value (mice treated with anti-Fas antibody)?
The value was 15 to 20 min.

And the “liver staining five minutes after injection” value (treated and untreated with anti-Fas antibody)?
The value was “early distribution”.

Reference: US6602852B1, “Basic peptides and pharmaceutical compositions containing same” (NST NeuroSurvival Technologies, Ltd., priority 1998, dated 2003)
